Laboratory results: patent US6638943B2 (The University of Tennessee Research Foundation, priority 2001, dated 2003)

Sequences of proteins named here, by UniProt entry; tags and fusion partners are left off.
UniProt P18089, whole entry: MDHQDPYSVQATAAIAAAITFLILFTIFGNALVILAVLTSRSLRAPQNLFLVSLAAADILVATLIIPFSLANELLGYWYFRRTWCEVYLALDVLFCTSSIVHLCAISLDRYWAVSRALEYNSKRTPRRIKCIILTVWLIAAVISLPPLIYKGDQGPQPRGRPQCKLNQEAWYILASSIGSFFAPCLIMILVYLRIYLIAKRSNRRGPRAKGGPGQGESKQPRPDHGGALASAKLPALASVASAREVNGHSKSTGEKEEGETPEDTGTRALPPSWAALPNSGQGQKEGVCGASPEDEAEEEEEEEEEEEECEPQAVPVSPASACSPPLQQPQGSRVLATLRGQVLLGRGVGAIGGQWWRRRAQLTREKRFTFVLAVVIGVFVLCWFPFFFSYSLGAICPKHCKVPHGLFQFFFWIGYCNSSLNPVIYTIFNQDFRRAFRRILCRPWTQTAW
UniProt P35348, whole entry: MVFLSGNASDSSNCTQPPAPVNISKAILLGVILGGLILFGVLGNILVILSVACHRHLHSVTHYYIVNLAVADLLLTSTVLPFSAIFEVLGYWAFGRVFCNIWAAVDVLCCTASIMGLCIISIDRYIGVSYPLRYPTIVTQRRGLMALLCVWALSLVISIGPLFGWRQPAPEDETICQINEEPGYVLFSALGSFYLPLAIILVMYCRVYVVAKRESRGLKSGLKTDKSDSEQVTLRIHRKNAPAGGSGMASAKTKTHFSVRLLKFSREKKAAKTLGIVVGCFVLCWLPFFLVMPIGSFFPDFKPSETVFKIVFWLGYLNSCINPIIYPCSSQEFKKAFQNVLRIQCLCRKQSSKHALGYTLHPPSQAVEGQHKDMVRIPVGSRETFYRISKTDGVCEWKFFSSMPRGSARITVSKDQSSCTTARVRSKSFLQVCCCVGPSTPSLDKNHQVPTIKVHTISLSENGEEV
UniProt P25100, whole entry: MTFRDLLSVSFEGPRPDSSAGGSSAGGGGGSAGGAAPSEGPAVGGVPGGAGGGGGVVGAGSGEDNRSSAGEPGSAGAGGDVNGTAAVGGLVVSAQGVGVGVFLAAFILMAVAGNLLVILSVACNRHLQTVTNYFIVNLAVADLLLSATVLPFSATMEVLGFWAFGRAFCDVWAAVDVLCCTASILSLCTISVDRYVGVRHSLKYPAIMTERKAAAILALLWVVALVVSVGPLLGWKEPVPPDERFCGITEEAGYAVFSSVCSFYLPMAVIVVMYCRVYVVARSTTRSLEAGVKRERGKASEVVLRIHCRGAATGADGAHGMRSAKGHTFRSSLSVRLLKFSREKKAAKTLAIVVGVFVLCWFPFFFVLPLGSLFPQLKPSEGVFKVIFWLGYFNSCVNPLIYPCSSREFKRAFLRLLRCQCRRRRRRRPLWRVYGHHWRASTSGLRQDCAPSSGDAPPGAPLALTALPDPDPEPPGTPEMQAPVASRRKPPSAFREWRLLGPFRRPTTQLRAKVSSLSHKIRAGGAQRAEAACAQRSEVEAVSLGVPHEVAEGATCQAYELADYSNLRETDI
UniProt P08913, whole entry: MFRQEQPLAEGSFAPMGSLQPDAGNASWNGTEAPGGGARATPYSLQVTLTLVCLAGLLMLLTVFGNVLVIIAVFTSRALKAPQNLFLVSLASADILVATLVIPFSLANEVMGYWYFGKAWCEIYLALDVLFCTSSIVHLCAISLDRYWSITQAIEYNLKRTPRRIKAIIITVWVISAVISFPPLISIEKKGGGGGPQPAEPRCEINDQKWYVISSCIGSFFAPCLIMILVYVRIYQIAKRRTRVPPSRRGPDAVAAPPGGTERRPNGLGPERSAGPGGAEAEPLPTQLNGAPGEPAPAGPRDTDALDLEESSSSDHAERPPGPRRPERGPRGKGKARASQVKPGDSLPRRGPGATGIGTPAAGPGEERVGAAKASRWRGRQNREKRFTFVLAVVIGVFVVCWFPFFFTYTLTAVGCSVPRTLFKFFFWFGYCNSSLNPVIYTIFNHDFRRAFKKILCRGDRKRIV
UniProt P35368, whole entry: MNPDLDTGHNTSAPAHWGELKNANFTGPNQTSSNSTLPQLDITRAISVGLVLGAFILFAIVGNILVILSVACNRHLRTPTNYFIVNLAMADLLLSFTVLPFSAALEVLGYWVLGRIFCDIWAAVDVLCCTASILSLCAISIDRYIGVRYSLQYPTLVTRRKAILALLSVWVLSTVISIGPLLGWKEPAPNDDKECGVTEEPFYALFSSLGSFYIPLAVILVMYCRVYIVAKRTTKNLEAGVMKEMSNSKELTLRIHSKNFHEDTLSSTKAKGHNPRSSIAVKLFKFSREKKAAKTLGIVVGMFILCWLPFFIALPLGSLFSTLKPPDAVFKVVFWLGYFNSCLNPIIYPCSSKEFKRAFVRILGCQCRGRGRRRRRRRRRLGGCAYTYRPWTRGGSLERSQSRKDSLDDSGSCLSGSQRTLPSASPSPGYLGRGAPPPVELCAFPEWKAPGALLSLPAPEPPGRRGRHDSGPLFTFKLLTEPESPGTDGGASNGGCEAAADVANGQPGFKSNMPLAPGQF
UniProt P18825, whole entry: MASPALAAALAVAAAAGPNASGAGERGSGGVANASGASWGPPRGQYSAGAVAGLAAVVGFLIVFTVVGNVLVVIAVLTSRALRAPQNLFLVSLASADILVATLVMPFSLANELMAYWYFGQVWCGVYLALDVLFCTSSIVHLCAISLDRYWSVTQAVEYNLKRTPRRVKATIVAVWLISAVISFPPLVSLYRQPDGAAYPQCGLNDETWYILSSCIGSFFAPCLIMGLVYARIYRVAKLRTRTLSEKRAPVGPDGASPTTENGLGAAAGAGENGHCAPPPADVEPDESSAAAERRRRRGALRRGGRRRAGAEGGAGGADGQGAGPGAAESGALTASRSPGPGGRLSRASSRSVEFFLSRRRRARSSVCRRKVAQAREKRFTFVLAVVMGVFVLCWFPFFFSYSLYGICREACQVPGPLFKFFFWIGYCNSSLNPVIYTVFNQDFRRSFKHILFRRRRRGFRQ

Key:
human α2b-AR = human α2b-AR (Homo sapiens, UniProt P18089); assay: [3H]Rauwolscine equilibrium competition binding, human α2b-AR expressed in CHO cells
human α1a-AR = human α1a-AR (Homo sapiens, UniProt P35348); assay: [3H]prazosin equilibrium competition binding, human α1a-AR expressed in HEK cells; conditions: Table 3, mean ± SEM of n = 4-6
human α1d-AR = human α1d-AR (Homo sapiens, UniProt P25100); assay: [3H]prazosin equilibrium competition binding, human α1d-AR expressed in HEK cells; conditions: Table 3, mean ± SEM of n = 4-6
human α2a-AR [1] = target: T1, human α2a-AR (Homo sapiens, UniProt P08913); assay: [3H]Rauwolscine equilibrium competition binding, human α2a-AR expressed in CHO cells; conditions: for pKi α2a-AR: Table 2, human α2a-AR in CHO cells, mean ± SEM of n = 4-6
human α1b-AR = human α1b-AR (Homo sapiens, UniProt P35368); assay: [3H]prazosin equilibrium competition binding, human α1b-AR expressed in HEK cells; conditions: Table 3, mean ± SEM of n = 4-6
human α2c-AR [2] = target: T2, human α2c-AR (Homo sapiens, UniProt P18825); assay: [3H]Rauwolscine equilibrium competition binding, human α2c-AR expressed in CHO cells
human α2c-AR [3] = target: T2, human α2c-AR; assay: Reversal of medetomidine mediated inhibition of forskolin-induced cAMP (6 CRE-LUC reporter), CHO cells expressing α2c-AR; type: cell-based
human α2a-AR [4] = target: T1, human α2a-AR; assay: Reversal of medetomidine mediated inhibition of forskolin-induced cAMP (6 CRE-LUC reporter), CHO cells expressing α2a-AR; type: cell-based; conditions: read-out: Effective Concentration-50 (nM ± SEM) α2a-AR; reversal of medetomidine (10 nM) effect on forskolin (5 μM) cAMP response; mean ± SEM of n=3-4

Row | Structure (SMILES) | pKi α2b-AR (human α2b-AR) | pKi α1a-AR (human α1a-AR) | pKi α1d-AR (human α1d-AR) | pKi α2a-AR (human α2a-AR [1]) | pKi α1b-AR (human α1b-AR) | pKi α2c-AR (human α2c-AR [2]; Table 3, CHO cells, [3H]rauwolscine, mean ± SEM of n = 4-6) | binding affinity for α2c-AR greater than on the α1-AR subtypes (human α2c-AR [2]; from Table 3) | binding potency for α2c-AR greater than binding to α2a-AR (human α2c-AR [2]; from pKi values of Table 2) | binding potency for α2c-AR greater than binding to α2b-AR (human α2c-AR [2]; from pKi values of Table 2) | selectivity for the human α2c-AR subtype (in words) (human α2c-AR [2]; summary of Table 2) | α2c-AR Selectivity Ratio (EC50 on α2a-AR relative to α2c-AR) (human α2c-AR [3]; Table 4) | more potent at inhibiting the action of medetomidine on α2c-AR versus α2a-AR (human α2c-AR [3]; from Table 4) | EC50 (human α2c-AR [3]; read-out: Effective Concentration-50 (nM ± SEM) α2c-AR, reversal of medetomidine (10 nM) effect on forskolin (5 μM) cAMP response, mean ± SEM of n=3-4) | EC50 (human α2a-AR [4]) | pKi α2b-AR (human α2b-AR; tested form: 2HCl, 2.5H2O) | α2a/α2b Selectivity = Ki(α2b)/Ki(α2a) (human α2a-AR [1]; Table 1, ratio of Ki values, tested form: 2HCl, 2.5H2O) | pKi α2a-AR (human α2a-AR [1]; tested form: 2HCl, 2.5H2O)
1 | O=C(NCCCCCCCCCCCCCCCCCCCCCCCCNC(=O)[C@@H]1[C@H]2C[C@H]3c4[nH]c5ccccc5c4CCN3C[C@@H]2CC[C@@H]1O)[C@@H]1[C@H]2C[C@H]3c4[nH]c5ccccc5c4CCN3C[C@@H]2CC[C@@H]1O | 5.41 ± 0.02 | 4.52 ± 0.01 | 4.51 ± 0.08 | 6.39 ± 0.10 | 4.91 ± 0.01 | 8.30 ± 0.10 | ≥ 2450 fold | 81 fold | 776 fold | potent and selective ligands | 28.8 | 29 fold | 110 nM | 3180 nM |  |  | 
2 | O=C(NCCCCCCCCCNC(=O)[C@@H]1[C@H]2C[C@H]3c4[nH]c5ccccc5c4CCN3C[C@@H]2CC[C@@H]1O)[C@@H]1[C@H]2C[C@H]3c4[nH]c5ccccc5c4CCN3C[C@@H]2CC[C@@H]1O |  |  |  |  |  |  |  |  |  |  |  |  |  |  | 7.03 ± 0.02 | 35.8 | 8.40 ± 0.12

Like-named read-outs stand apart in the source and are kept apart here.
